An excerpt weighted towards active compounds, which were near 2.1% of everything screened.
NR1D1 modulator: modulators of Rev-erb alpha DNA binding, primary screen, biochemical, FITC-DNA, fluorescence polarization, uHTS; Nuclear receptor subfamily 1 group D member 1 (Homo sapiens), P20393; Rev-erbα–FITC-DNA binding, 90 min; activity, % at 10 µM; hit rate 0.79% among 370,000;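 active means activity above about 14%, limit read from the data; passing the limit was not always enough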;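 further: 0% = DMSO wells with 35 nM protein and 100% = DMSO wells with 750 nM protein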
Yeast UUG start: modulators of yeast start codon fidelity, primary screen, whole organism, S. cerevisiae, single point, plate reader | AID 602363, 2012 | S. cerevisiae UUG-firefly luciferase reporter, luminescence/redox ratio | activity score, % at 18.7 µM | hit rate 0.13% among 350,000;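 active = replicate mean at a twofold rise or more, about +100% in these data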;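 also: firefly luciferase made from a UUG start codon reports start codon fidelity; reporter light over untreated wells divided by growth signal over untreated wells; some hits fall short of that in this replicate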
SMARCA2 activ: SMARCA2 (BRM) function activators, primary screen, cell-based, luminescence, high throughput; MG213 cells, MMTV-luciferase reporter, dexamethasone, overnight; activation, % at 9.1 µM; hit rate 1% among 370,000; in the data active means activation above about 7.8%;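 further: 0% = vehicle wells and 100% = reference activator wells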
ERp5 block: inhibitors of ERp5-driven insulin aggregation, primary screen, biochemical, turbidity, absorbance 650 nm, single point. 90 min. inhibition, % at 9.99 µM. hit rate 0.05% among 350,000;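 active means mean replicate inhibition above about 25%, with every replicate also reaching it, limit read from the data, passing the limit was not always enough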
PDI turbidity: inhibitors of human PDI, primary screen, biochemical, turbidity, single point, plate reader; Protein disulfide-isomerase (Homo sapiens), P07237; PDI insulin aggregation turbidity, A650, 90 min; inhibition, % at 10 µM; hit rate 0.052% among 350,000; AID 588391, 2011;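 active means mean inhibition across replicates of 30% or more, whatever share of single replicates reach that level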
INS-1E GSIS act: GLuc luminescence reporter in INS-1E cells, primary screen for activators of glucose-dependent secretion of insulin; INS-1E GLuc reporter insulin secretion, 2-3 h; activation, % at 16.6 µM; hit rate 0.61% among 370,000; AID 743287, 2014;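 active means lowest replicate activation of at least 40%, so every replicate reaches that level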;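 further: 0% = median of neutral control wells and 100% = median of IBMX positive control wells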
Starred values were filed as active, the others as inactive; x = no result.

By UniProt entry, the sequences of proteins in these tests, tags left out.
Protein disulfide-isomerase (Homo sapiens), P07237, UniProt P07237, whole entry, looked up: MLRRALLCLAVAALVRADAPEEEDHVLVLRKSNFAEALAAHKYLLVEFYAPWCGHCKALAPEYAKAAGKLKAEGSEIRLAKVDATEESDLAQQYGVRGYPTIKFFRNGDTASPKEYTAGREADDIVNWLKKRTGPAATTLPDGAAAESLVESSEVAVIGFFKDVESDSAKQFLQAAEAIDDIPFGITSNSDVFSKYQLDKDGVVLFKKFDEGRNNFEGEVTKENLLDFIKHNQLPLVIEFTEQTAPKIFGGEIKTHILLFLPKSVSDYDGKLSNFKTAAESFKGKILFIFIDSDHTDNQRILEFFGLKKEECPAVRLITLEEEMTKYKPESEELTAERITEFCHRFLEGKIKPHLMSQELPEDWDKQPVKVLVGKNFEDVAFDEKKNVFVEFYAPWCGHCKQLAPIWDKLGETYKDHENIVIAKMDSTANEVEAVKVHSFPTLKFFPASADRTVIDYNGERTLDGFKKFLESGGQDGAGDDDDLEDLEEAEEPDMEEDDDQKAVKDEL

[1] O=C(NC1CCCCCC1)C1CCC(=O)N(Cc2ccccc2F)C1 (stereo not drawn)
[2] O=C(NCC1(O)CCCCC1)C1CCC(=O)N(Cc2ccccc2F)C1 (stereo not drawn)
[3] C[C@H](CO)N1C[C@H](C)[C@H](CN(C)C(=O)C2CCOCC2)Oc2ncc(C3=CCCC3)cc2C1=O
[4] CCNC(=O)NC(=O)C(C)OC(=O)c1oc2ccccc2c1CSC1CCCCC1 (stereo not drawn)
[5] O=C(O)CCC1(CCC(=O)O)CCCC(CCC(=O)O)(CCC(=O)O)C1=O

assay / entry,1,2,3,4,5
NR1D1 modulator,0,0,x,-8,-7
Yeast UUG start,14,-8,-5,2,2
SMARCA2 activ,-1,1,x,-1,2
ERp5 block,7,-11,-1,x,3
PDI turbidity,10,-3,x,-1,-5
INS-1E GSIS act,4,54*,7,108*,47*

Some of the entries above, set out differently.
Values in the order – NR1D1 modulator	Yeast UUG start	SMARCA2 activ	ERp5 block	PDI turbidity	INS-1E GSIS act
1: O=C(NC1CCCCCC1)C1CCC(=O)N(Cc2ccccc2F)C1 (stereo not drawn)
    0	14	-1	7	10	4
5: O=C(O)CCC1(CCC(=O)O)CCCC(CCC(=O)O)(CCC(=O)O)C1=O
    -7	2	2	3	-5	47*

Continued.
[6] O=c1c(Cl)c(NCCO)cnn1-c1cccc(Cl)c1
[7] O=C(NCCc1ccccc1)c1cc2ncc(Br)cn2n1
[8] COCCNC(=O)c1cc2ncc(Br)cn2n1
[9] CC(C)NC(=O)N(C)C[C@H]1OCCCC[C@H](C)Oc2ccc(NC(=O)Nc3cccc4ccccc34)cc2C(=O)N([C@H](C)CO)C[C@@H]1C
[10] COc1ccc(S(=O)(=O)N(C)C[C@H]2Oc3ccc(NS(=O)(=O)c4ccc(F)cc4)cc3CC(=O)N([C@H](C)CO)C[C@@H]2C)cc1

assay / entry,6,7,8,9,10
NR1D1 modulator,-2,-20,-4,x,x
Yeast UUG start,x,-14,-16,-13,x
SMARCA2 activ,-3,8.1*,0,x,x
ERp5 block,-10,x,x,1,4
PDI turbidity,-1,-3,7,x,x
INS-1E GSIS act,46*,x,0,12,-1

[11] O=C(O)c1cc2c(s1)-c1ccccc1CC2
[12] COc1ccc2c(c1)CCc1cc(C(=O)O)sc1-2
[13] CC(C)n1nc(C(=O)Nc2ccccc2N2CCOCC2)c2ccccc2c1=O
[14] CCN(CC)S(=O)(=O)c1ccc(N2CCOCC2)c(NC(=O)c2nn(C(C)C)c(=O)c3ccccc23)c1
[15] CCC(=O)Nc1ccc(Cl)c(NC(=S)NC(=O)COc2ccc(Cl)cc2)c1

assay / entry,11,12,13,14,15
NR1D1 modulator,-1,-1,-14,-7,-2
Yeast UUG start,-22,5,x,-15,x
SMARCA2 activ,-2,-2,7,0,0
ERp5 block,x,4,x,5,x
PDI turbidity,-5,-3,3,8,19
INS-1E GSIS act,-3,65*,120*,-1,44*

Part of the list above in order of SMILES length, rising.
[11] O=C(O)c1cc2c(s1)-c1ccccc1CC2
[14] CCN(CC)S(=O)(=O)c1ccc(N2CCOCC2)c(NC(=O)c2nn(C(C)C)c(=O)c3ccccc23)c1
[10] COc1ccc(S(=O)(=O)N(C)C[C@H]2Oc3ccc(NS(=O)(=O)c4ccc(F)cc4)cc3CC(=O)N([C@H](C)CO)C[C@@H]2C)cc1

assay / entry,11,14,10
NR1D1 modulator,-1,-7,x
Yeast UUG start,-22,-15,x
SMARCA2 activ,-2,0,x
ERp5 block,x,5,4
PDI turbidity,-5,8,x
INS-1E GSIS act,-3,-1,-1

Going on with the list:
[16] CCC(=O)Nc1ccc(Cl)c(NC(=S)NC(=O)COc2ccccc2)c1
[17] O=C(C[C@H]1CC[C@@H](NS(=O)(=O)c2ccc(F)cc2)[C@@H](CO)O1)NCCc1ccncc1
[18] COc1cccc(-c2cnc3c(c2)C(=O)N([C@@H](C)CO)C[C@@H](C)[C@H](CN(C)Cc2ccc(F)cc2)O3)c1
[19] O=C(NC(=S)NCC1CCCO1)c1ccc(Cl)cc1Cl (stereo not drawn)
[20] O=C1C(Cl)=C(NCCCN2CCOCC2)C(=O)N1CCc1ccccc1

assay / entry,16,17,18,19,20
NR1D1 modulator,3,x,x,-2,2
Yeast UUG start,x,-9,4,x,x
SMARCA2 activ,-3,x,x,2,-4
ERp5 block,2,5,0,x,x
PDI turbidity,2,x,x,8,4
INS-1E GSIS act,-5,11,-13,56*,6

[21] O=C1C(Cl)=C(NCCc2ccccc2)C(=O)N1CCc1ccccc1
[22] CC1CCN(C2=C(NS(=O)(=O)c3ccccc3)C(=O)c3ccccc3C2=O)CC1
[23] CCCNC(=O)N1CC(=O)N2[C@H](C1)[C@@H](c1ccc(-c3ccccc3)cc1)[C@@H]2CO
[24] C=CCN1C(=O)CSc2ccc(C(=O)OCC)cc21
[25] O=C(CSc1ncccn1)N1CCN(S(=O)(=O)c2ccccc2)CC1

assay / entry,21,22,23,24,25
NR1D1 modulator,-3,0,x,-2,-6
Yeast UUG start,-5,x,x,-17,-9
SMARCA2 activ,7.9*,7.8*,x,1,5
ERp5 block,x,6,x,x,-2
PDI turbidity,11,3,x,0,-5
INS-1E GSIS act,x,14,17,69*,51*

| nr | SMILES | NR1D1 modulator | Yeast UUG start | SMARCA2 activ | ERp5 block | PDI turbidity | INS-1E GSIS act |
| --- | --- | --- | --- | --- | --- | --- | --- |
| 26 | O=C(C[C@H]1CC[C@H](NC(=O)Nc2ccc(F)cc2)[C@@H](CO)O1)NCc1ccccn1 | x | -17 | x | 3 | x | 4 |
| 27 | COc1ccccc1-c1ccc([C@@H]2[C@H](CO)N(C(=O)C3CC3)C23CN(C(C)=O)C3)cc1 | x | x | x | 7 | x | 7 |
| 28 | COc1ccc(S(=O)(=O)Nc2ccc3c(c2)C(=O)N([C@@H](C)CO)C[C@H](C)[C@H](CN(C)Cc2ccncc2)O3)cc1 | x | -4 | x | 10 | x | -5 |
| 29 | COc1ccc(CN(C)C(=O)Cn2cc(C)c(=O)[nH]c2=O)cc1OC | -1 | -8 | -5 | 7 | -4 | 44* |
| 30 | COc1ccc(CN(C)C(=O)Cn2ccsc2=N)cc1OC | 5 | 4 | 1 | 2 | 2 | 4 |
| 31 | O=C(O)c1ccc(-c2nc(-c3ccc(Cl)cc3)cs2)cc1 | -1 | x | 4 | -7 | -14 | -8 |
| 32 | O=C(O)c1ccc(-c2nc(-c3ccc(Cl)cc3Cl)cs2)cc1 | -3 | 555* | 4 | 2 | -34 | -2 |
| 33 | CCCNC(=O)Nc1ccc2c(c1)C(=O)N(C)C[C@@H](OC)[C@H](C)CN(Cc1ccncc1)[C@@H](C)CO2 | x | x | x | x | x | 12 |
| 34 | O=C1C(=Cc2cccn2-c2ccc(O)cc2)C(=O)c2ccccc21 | -21 | -19 | -1 | x | -2 | x |
| 35 | O=C1C(=Cc2cccn2-c2ccccc2)C(=O)c2ccccc21 | -15 | -3 | 0 | x | -2 | 72* |
| 36 | CNC[C@H]1OCCCC[C@@H](C)Oc2ccc(N(C)C)cc2C(=O)N([C@@H](C)CO)C[C@H]1C | x | 25 | x | 0 | x | -2 |
| 37 | Cc1nc2ncccn2c1-c1csc(Nc2ccc(O)cc2)n1 | -4 | x | -4 | -6 | 53* | -5 |
| 38 | Cn1cc(Br)c(C(=O)NNC(=O)c2ccc(Br)cc2)n1 | 4 | x | 4 | -1 | -5 | x |
| 39 | Cn1cc(Br)c(C(=O)NNC(=O)c2ccccc2)n1 | -5 | -3 | -2 | x | 14 | 42* |
| 40 | Cc1ccccc1Cc1c(C)nc2c(C(=O)NCc3ccco3)cnn2c1C | 3 | -19 | x | -1 | -16 | 46* |
| 41 | Cc1ccccc1Cc1c(C)nc2nc(SCC(=O)NCc3ccco3)nn2c1C | -6 | -3 | 0 | x | 1 | x |
| 42 | O=c1[nH]c(/C=C/c2ccc(OC(F)F)cc2)nc2c1cnn2-c1ccccc1 | 1 | x | -1 | x | -12 | 85* |
| 43 | CCOCCCNC(=O)c1cc2c(s1)-c1ccccc1SC2 | -5 | -9 | 0 | -6 | 16 | 5 |
| 44 | CN(C)CCNC(=O)c1cc2c(s1)-c1ccc(Cl)cc1SC2 | -3 | -5 | -7 | 3 | -8 | 228* |
| 45 | CCN1[C@@H]2c3ccc(-c4ccccc4)c(=O)n3C[C@@H]2[C@@H](CO)[C@@H]1C(=O)NCC(F)(F)F | x | x | x | 37* | x | 0 |
| 46 | O=C(C[C@@H]1CC[C@H]2[C@@H](COC[C@H](O)CN2CC2CCCC2)O1)NCc1ccc(Cl)cc1 | x | x | x | 2 | x | -13 |
| 47 | O=C(O)CCCC(=O)N1CCN(c2nc(-c3ccccc3)c3ccccc3n2)CC1 | -4 | -2 | -1 | -6 | 2 | 61* |
| 48 | Cc1ccc2nc(N3CCN(C(=O)CCC(=O)O)CC3)nc(-c3ccccc3)c2c1 | -6 | -3 | 2 | 2 | 12 | 5 |

Assay outcomes as filed in PubChem.
